Experimental data taken from patent US9902714B2, “Quinoxaline derivatives useful as FGFR kinase modulators” (ASTEX THERAPEUTICS LTD, priority 2014, dated 2018).

The chains behind the UniProt entries cited, without tags or fusion partners. Residues count along the entry.
UniProt P35968, 20-1356: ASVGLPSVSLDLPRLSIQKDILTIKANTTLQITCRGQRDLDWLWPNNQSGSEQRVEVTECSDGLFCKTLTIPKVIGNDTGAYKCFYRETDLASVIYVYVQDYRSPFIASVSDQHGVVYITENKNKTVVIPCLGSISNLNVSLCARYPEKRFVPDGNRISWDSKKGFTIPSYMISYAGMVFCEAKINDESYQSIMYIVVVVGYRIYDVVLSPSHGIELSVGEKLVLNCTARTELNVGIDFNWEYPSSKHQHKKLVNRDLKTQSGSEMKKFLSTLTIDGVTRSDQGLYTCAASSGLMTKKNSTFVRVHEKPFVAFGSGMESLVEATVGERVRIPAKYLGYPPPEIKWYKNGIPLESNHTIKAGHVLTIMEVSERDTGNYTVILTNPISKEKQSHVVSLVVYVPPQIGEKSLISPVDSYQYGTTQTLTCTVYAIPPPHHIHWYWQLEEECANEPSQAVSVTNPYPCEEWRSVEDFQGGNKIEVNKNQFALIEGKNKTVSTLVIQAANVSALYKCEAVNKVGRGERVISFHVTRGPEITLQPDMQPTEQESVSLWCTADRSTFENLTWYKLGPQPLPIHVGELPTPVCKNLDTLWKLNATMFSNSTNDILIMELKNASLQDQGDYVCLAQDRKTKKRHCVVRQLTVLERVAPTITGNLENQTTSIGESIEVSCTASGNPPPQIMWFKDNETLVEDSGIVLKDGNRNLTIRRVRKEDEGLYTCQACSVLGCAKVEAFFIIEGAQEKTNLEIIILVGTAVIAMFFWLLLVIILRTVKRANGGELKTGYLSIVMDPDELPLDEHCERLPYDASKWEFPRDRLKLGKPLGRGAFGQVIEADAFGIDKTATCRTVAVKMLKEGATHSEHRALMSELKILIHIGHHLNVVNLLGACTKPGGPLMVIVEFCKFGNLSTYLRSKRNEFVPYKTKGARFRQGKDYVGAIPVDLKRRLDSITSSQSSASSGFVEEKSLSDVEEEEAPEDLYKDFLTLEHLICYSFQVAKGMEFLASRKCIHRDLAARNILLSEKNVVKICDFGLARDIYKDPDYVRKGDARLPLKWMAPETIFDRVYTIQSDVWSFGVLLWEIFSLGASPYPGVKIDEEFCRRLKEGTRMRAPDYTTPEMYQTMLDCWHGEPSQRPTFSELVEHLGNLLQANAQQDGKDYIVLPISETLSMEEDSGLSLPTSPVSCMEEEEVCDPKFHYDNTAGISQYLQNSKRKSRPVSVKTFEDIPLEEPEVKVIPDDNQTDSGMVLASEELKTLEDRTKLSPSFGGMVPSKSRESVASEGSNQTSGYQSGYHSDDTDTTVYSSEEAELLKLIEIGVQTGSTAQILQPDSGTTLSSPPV

Biological target: KDR (h) (VEGFR2) (Homo sapiens (Human), UniProt P35968)
Assay: KDR (VEGFR2) (enzymatic assay), TR-FRET
Format: biochemical
Conditions: 3 μM ATP; read-out: VEGFR KDR pIC50 (converted)

IC50: 2510 nM
Structure (SMILES): COc1cc(OC)c2c(c1)N(c1ccc3ncc(-c4cnn(C)c4)nc3c1)CCN(C(C)C)C2 [Compound 1]
